Biological target: Drp1 (Homo sapiens (Human), UniProt O00429)
Test: Drp1 Activity Screen: colorimetric (malachite green) GTPase assay
Assay type: biochemical
Conditions: max % inhibition of Drp1 GTPase activity; 0.6 μM Drp1, 0.1 mg/mL liposomes, 1 mM GTP, 20 min at 37° C.
Description: The GTPase activity of Drp1 was assayed using a colorimetric assay similar to as described previously by Leonard M. et al. “Robust colorimetric assays for dynamin's basal and stimulated GTPase activities.” Methods Enzymol. […] Briefly, for GTPase assays of purified Drp1 inhibitor samples, 0.6 μM Drp1 preincubated with 0.1 mg/mL liposomes (consisting of 80% soybean lipids/20% cardiolipin) and inhibitor was added to 1 mM GTP in a microtiter plate for 20 min at 37° C. in 4 mM MgCl2, 10 mM Hepes (pH 7.0), 100 mM KCl, 1 mM DTT. Reactions were stopped by diluting with 0.5 mM EDTA. Samples were then incubated with malachite green reagent (1 mM malachite green and 50 mM ammonium molybdate in 1 N HCl), and the absorbance at 650 nm was measured. The reaction rates, IC50 values, and max % inhibition were determined using Excel/GraphPad Prism software.

By UniProt entry, the sequences of proteins in these tests, tags left out.
UniProt O00429, whole entry: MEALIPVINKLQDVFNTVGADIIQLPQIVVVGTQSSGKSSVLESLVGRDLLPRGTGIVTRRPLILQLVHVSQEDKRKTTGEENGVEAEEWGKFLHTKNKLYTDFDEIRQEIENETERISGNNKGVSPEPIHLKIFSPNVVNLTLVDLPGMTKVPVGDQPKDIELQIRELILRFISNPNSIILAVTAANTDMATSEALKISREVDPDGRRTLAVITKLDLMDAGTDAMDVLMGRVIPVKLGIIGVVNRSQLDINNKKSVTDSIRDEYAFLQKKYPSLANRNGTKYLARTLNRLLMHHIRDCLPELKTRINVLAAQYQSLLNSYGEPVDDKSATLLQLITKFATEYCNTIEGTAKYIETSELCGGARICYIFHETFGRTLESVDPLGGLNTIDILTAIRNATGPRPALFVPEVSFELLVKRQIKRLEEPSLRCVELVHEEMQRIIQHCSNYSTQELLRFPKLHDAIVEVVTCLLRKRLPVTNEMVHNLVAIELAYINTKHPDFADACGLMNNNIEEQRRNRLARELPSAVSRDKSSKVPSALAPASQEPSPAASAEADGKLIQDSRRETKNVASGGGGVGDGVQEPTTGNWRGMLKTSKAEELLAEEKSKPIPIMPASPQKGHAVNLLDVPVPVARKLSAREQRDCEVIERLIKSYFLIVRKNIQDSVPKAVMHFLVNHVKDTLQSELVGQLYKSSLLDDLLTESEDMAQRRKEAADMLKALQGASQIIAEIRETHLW

Structure (SMILES): CC(=O)c1cc(C(=O)Nc2ccc(C(=O)O)cc2)n(Cc2csc(N3CCCCC3)n2)c1 [Compound A-56, 4-(4-acetyl-1-((2-(piperidin-1-yl)thiazol-4-yl)methyl)-1H-pyrrole-2-carboxamido)benzoic Acid]
- max % inh: 46%

Structure (SMILES): Nc1cc(C(=O)Nc2ccc(C(=O)O)cc2)n(Cc2csc(N3CCCCC3)n2)c1 [Compound A-53, 4-(4-Amino-1-((2-(piperidin-1-yl)thiazol-4-yl)methyl)-1H-pyrrole-2-carboxamido)benzoic acid]
- max % inh: 32%

Source: patent publication US11168080B2, “Dynamin-1-like protein inhibitors” (Mitobridge, Inc., priority 2017, dated 2021)
